{"sequences": {"note": "Chains of the proteins cited; added tags and fusions are not shown.", "UniProt Q92743, whole entry, looked up": "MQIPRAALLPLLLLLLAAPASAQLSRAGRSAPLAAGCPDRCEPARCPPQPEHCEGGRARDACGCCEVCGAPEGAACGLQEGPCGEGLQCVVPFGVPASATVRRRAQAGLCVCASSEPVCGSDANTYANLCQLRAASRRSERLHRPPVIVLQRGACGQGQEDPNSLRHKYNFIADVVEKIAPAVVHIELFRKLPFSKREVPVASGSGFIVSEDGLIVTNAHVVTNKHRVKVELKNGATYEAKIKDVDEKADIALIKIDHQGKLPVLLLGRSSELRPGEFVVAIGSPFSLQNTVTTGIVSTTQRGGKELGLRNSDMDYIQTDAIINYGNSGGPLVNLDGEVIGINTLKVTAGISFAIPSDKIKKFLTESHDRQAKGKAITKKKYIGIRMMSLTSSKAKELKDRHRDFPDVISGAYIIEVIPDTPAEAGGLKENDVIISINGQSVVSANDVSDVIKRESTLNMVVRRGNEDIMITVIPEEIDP"}, "source": "PubChem BioAssay AID504803", "about": "(The Scripps Research Institute Molecular Screening Center, 2011)", "note": "This is a selection; strong and weak results do not stand in their true shares. Activity calls are given as the source filed them. No stated cut-off is given here; in the data, active means inhibition above about 36%; inactive means the rest."}
{"biological_target": "Serine protease HTRA1 (Homo sapiens) (UniProt Q92743)", "assay": "HTRA1 serine protease inhibitors, primary screen, biochemical, fluorescence polarization, HTS (AID 504803);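 further: 0% = enzyme with DMSO and 100% = wells lacking enzyme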", "settings": "recombinant HTRA1, FP-rhodamine activity-based probe, at 5.96 µM, stronger effect = higher value"}
{"smiles": "Cc1ccccc1CN(C)C(=O)COC(=O)C(O)(c1ccccc1)c1ccccc1", "inhibition": "inactive: -0.76%"}
{"smiles": "C[C@H]1OP(=O)(Oc2ccccc2)C[C@@H]2O[C@@H]21", "note": "(some centres undefined)", "inhibition": "inactive: 0.73%"}
{"smiles": "C[C@@H]1C=CCP(=O)(Oc2ccccc2)O1", "note": "(some centres undefined)", "inhibition": "inactive: -4.45%"}
{"smiles": "CC(=O)c1ccc(N2CC2c2ccncc2)cc1", "note": "(centres undefined)", "inhibition": "inactive: 9.19%"}
{"smiles": "N#C/C(=C\\c1ccc(N(CCBr)CCBr)cc1)C(N)=O", "inhibition": "inactive: 3.39%"}
{"smiles": "COC(=O)C1(C)COP(=O)(NCc2ccccc2)OC1", "note": "(centres undefined)", "inhibition": "inactive: 2.31%"}
{"smiles": "CC(=O)Nc1ccc([As](=O)(O)O)c(O)c1", "inhibition": "inactive: 0.1%"}
{"smiles": "CC(=O)Nc1ccc(Oc2c([N+](=O)[O-])cc([N+](=O)[O-])cc2[N+](=O)[O-])cc1", "inhibition": "inactive: 10.2%"}
{"smiles": "O=P1(Nc2nc3ccc(Cl)cc3s2)COc2ccccc2O1", "note": "(centres undefined)", "inhibition": "inactive: 0.31%"}
{"smiles": "CCOc1ccc(C2=NCC(CBr)S2)cc1", "note": "(centres undefined)", "inhibition": "inactive: -1.23%"}
{"smiles": "CC(C)(C)C(=O)NC(Sc1ccccc1)C(Cl)(Cl)Cl", "note": "(centres undefined)", "inhibition": "inactive: -11.2%"}
{"smiles": "CCc1cc(O)c([N+](=O)[O-])c(C)c1[N+](=O)[O-]", "inhibition": "inactive: 0.64%"}
{"smiles": "O=C(OC1CN2CCC1CC2)c1ccccc1", "note": "(centres undefined)", "inhibition": "inactive: 2.56%"}
{"smiles": "CCC(=O)N1C2C3N(C(=O)CC)C1C1N(C(=O)CC)C(C(N1C(=O)CC)N3C(=O)CC)N2C(=O)CC", "inhibition": "inactive: 2.2%"}
{"smiles": "COC(=O)c1cc2c(s1)N=C(c1ccccc1)N(C)P2(=O)N1CCOCC1", "note": "(centres undefined)", "inhibition": "inactive: 2.23%"}
{"smiles": "CC(=O)NC(SC(=S)N(CC(C)C)CC(C)C)C(Cl)(Cl)Cl", "note": "(centres undefined)", "inhibition": "inactive: 10%"}
{"smiles": "Cc1ccc(OP(=O)(Nc2ccccn2)Oc2ccc(C)cc2)cc1", "inhibition": "inactive: -13.7%"}
{"smiles": "CC(NC(=O)COC(=O)C(O)(c1ccccc1)c1ccccc1)c1ccccc1", "note": "(centres undefined)", "inhibition": "inactive: -7.99%"}
{"smiles": "Cc1ccccc1OP(=O)(Nc1ccccn1)Oc1ccccc1C", "inhibition": "inactive: -12.2%"}
{"smiles": "O=c1c2cc([N+](=O)[O-])ccc2[nH]c2c([N+](=O)[O-])cc([N+](=O)[O-])cc12", "inhibition": "inactive: 20.1%"}
{"smiles": "CN(C)C(=O)Oc1noc2ccccc12", "inhibition": "inactive: 5.86%"}
{"smiles": "CCNC(=S)/N=C(\\N)N[N+](=O)[O-]", "inhibition": "inactive: 7.81%"}
{"smiles": "O=C(NC1CCS(=O)(=O)C1)NP(=S)(Oc1ccccc1)Oc1ccccc1", "note": "(centres undefined)", "inhibition": "inactive: -8.32%"}
{"smiles": "O=P1(N(CCCl)CCCl)OCCC2CCCCN21", "note": "(centres undefined)", "inhibition": "inactive: 4.13%"}
{"smiles": "O=[As](O)(c1ccccc1)c1ccc(O)cc1", "inhibition": "inactive: 1.02%"}
{"smiles": "O=[N+]([O-])c1ccc(O)c(/C=N/Nc2ccc([N+](=O)[O-])cc2[N+](=O)[O-])c1", "inhibition": "inactive: 4.41%"}
{"smiles": "CC(=O)NC(SC(=S)N(C)C)C(Cl)(Cl)Cl", "note": "(centres undefined)", "inhibition": "inactive: 0.26%"}
{"smiles": "O=[N+]([O-])c1ncn(CCn2cnc([N+](=O)[O-])n2)n1", "inhibition": "inactive: 0%"}
{"smiles": "O=C(OC1CN2CCC1CC2)c1cccc(Cl)c1", "note": "(centres undefined)", "inhibition": "inactive: -2.85%"}
{"smiles": "C(Cc1nn[nH]n1)Cc1nn[nH]n1", "inhibition": "inactive: 2.57%"}
{"smiles": "Nc1ccc([As](=O)(O)c2ccc([N+](=O)[O-])cc2)cc1", "inhibition": "inactive: 3.61%"}
{"smiles": "O=P(Nc1ccccn1)(c1ccc(Br)cc1)c1ccc(Br)cc1", "inhibition": "inactive: -9.95%"}
{"smiles": "CN(C)C1(CNC(=O)c2ccc(Cl)c(S(N)(=O)=O)c2)CCCCC1", "inhibition": "inactive: -2.97%"}
{"smiles": "COc1ccc(N)c([N+](=O)[O-])c1[N+](=O)[O-]", "inhibition": "inactive: 18.7%"}
{"smiles": "O=P(Nc1nc2ccccc2s1)(c1ccccc1)c1ccccc1", "inhibition": "inactive: -5.54%"}
{"smiles": "C[C@H]1OP(=O)(Oc2ccccc2)[C@H](O)[C@H](O)[C@H]1N=[N+]=[N-]", "note": "(some centres undefined)", "inhibition": "inactive: -1.4%"}
{"smiles": "CC(C)C(=O)NC(Sc1ccccc1)C(Cl)(Cl)Cl", "note": "(centres undefined)", "inhibition": "inactive: -4.84%"}
{"smiles": "O=P(Nc1nccs1)(c1ccccc1)c1ccccc1", "inhibition": "inactive: 2.96%"}
{"smiles": "c1nnnn1CCn1cnnn1", "inhibition": "inactive: 3.46%"}
{"smiles": "CCN(/C(=N/P(=O)(N1CCOCC1)N1CCOCC1)N1CCOCC1)c1ccc(OC)cc1", "inhibition": "inactive: 1.49%"}
{"smiles": "Nc1ccc([As](=O)(O)c2ccc(N)cc2)cc1", "inhibition": "inactive: -2.02%"}
{"smiles": "C[N+]1=C2C=CC=CC=C2SC12C([N+](=O)[O-])=CC([N+](=O)[O-])=C[C-]2[N+](=O)[O-]", "note": "(centres undefined)", "inhibition": "active: 47.9%"}
{"smiles": "CC1CCN(C(=O)Oc2c(Cl)cc(Cl)c3cccnc23)CC1", "inhibition": "inactive: -6.25%"}
{"smiles": "c1cc(-c2nn[nH]n2)ccc1-c1nn[nH]n1", "inhibition": "inactive: 6.94%"}
{"smiles": "CC(C)c1nc(Nc2ccccc2)n(P(=O)(N(C)C)N(C)C)n1", "inhibition": "inactive: 2.83%"}
{"smiles": "CC(C)=N/N=C(\\N)N[N+](=O)[O-]", "inhibition": "inactive: 2.32%"}
{"smiles": "CN(C)C(=O)OCCc1n(C)cc[n+]1C", "inhibition": "inactive: 1.67%"}
{"smiles": "COc1ccc(C2=NCC(CBr)S2)cc1", "note": "(centres undefined)", "inhibition": "inactive: -0.38%"}
{"smiles": "Cc1ccc(NP(=O)(Oc2ccccc2)Oc2ccccc2)nc1", "inhibition": "inactive: -2.54%"}
{"smiles": "CCc1nc2c(n1)c1c(non1O)c1c2no[n+]1[O-]", "inhibition": "inactive: 21.2%"}
{"smiles": "O=[N+]([O-])c1cc([N+](=O)[O-])c(CCNc2ccccc2)c([N+](=O)[O-])c1", "inhibition": "active: 38.1%"}
{"smiles": "O=[N+]([O-])c1cccc2n[nH]nc12", "inhibition": "inactive: 1.41%"}
{"smiles": "CC(=O)N1C2C3N(C(C)=O)C1C1N(C(C)=O)C(C(N1C(C)=O)N3C(C)=O)N2C(C)=O", "inhibition": "inactive: 1.12%"}
{"smiles": "O=[N+]([O-])c1ncn(CCn2ncnc2[N+](=O)[O-])n1", "inhibition": "inactive: 1.2%"}
{"smiles": "CC(C)(C)C(=O)NC(Sc1ccncn1)C(Cl)(Cl)Cl", "note": "(centres undefined)", "inhibition": "inactive: 1.75%"}
{"smiles": "O=C(O)CNc1ccc([As](=O)(O)O)cc1", "inhibition": "inactive: 0.31%"}
{"smiles": "COC(=O)C1(C)COP(=O)(Nc2ccccc2)OC1", "note": "(centres undefined)", "inhibition": "inactive: 7.72%"}
{"smiles": "O=[N+]([O-])c1cccc(NC2=NCC(CBr)S2)c1", "note": "(centres undefined)", "inhibition": "inactive: 2.49%"}
{"smiles": "O=P1(N(CCCl)CCCl)OCCCS1", "note": "(centres undefined)", "inhibition": "inactive: 2.89%"}
{"smiles": "O=C(Nc1cc([As](=O)(O)O)ccc1O)c1ccccc1", "inhibition": "inactive: 2.55%"}
{"smiles": "Nc1cccc2ccc([As](=O)(O)O)cc12", "inhibition": "inactive: 25%"}
{"smiles": "CCN(N=Nc1nonc1N)c1nonc1N", "inhibition": "inactive: -5.36%"}
{"smiles": "O=P(Nc1nc2ccc(Cl)cc2s1)(c1ccccc1)c1ccccc1", "inhibition": "inactive: -30.8%"}
{"smiles": "CN(C)P(=O)(N(C)C)n1c(Nc2ccccc2)nnc1-c1ccccc1", "inhibition": "inactive: -5.22%"}
